PubChem BioAssay (NCI)
This is a selection; strong and weak results do not stand in their true shares. Calls of active or inactive are those of the source. No stated cut-off is given here; in the data, active means growth inhibition above about 70%; inactive means the rest.

What was measured:
[1] = NCI Yeast Anticancer Drug Screen. Data for the rad50 strain (AID 155);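 further: 0% = growth of vehicle-only cultures of the same strain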; conditions: S. cerevisiae rad50 strain growth inhibition; at 50.0 µM; active compounds read high
[2] = NCI Yeast Anticancer Drug Screen. Data for the mec2-1 strain (AID 157); conditions: S. cerevisiae mec2-1 strain, at 50.0 µM, active compounds read high
[3] = NCI Yeast Anticancer Drug Screen. Data for the sgs1 mgt1 strain (AID 161);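 further: 0% = growth of cultures given vehicle only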; conditions: S. cerevisiae sgs1 mgt1 strain, at 50.0 µM, active compounds read high
[4] = NCI Yeast Anticancer Drug Screen. Data for the cln2 rad14 strain (AID 165);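 further: 0% = growth equal to vehicle treated cultures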; conditions: S. cerevisiae cln2 rad14 strain, at 50.0 µM, active compounds read high
[5] = NCI Yeast Anticancer Drug Screen. Data for the bub3 strain (AID 167); conditions: S. cerevisiae bub3 mutant strain, at 50.0 µM, active compounds read high
[6] = NCI Yeast Anticancer Drug Screen. Data for the mlh1 rad18 strain (AID 175); conditions: S. cerevisiae mlh1 rad18 strain growth inhibition; at 50.0 µM; active compounds read high

Measured: growth inhibition

CC(C)(C)[Si](C)(C)OC(=O)N(CCCl)CCCl
inactive: [1] 9.35% | [2] 7.55% | [3] 13.2% | [4] 9.65% | [5] -31.5% | [6] 8.55%

CCOP(=S)(N=C(N)N)OCC
inactive: [1] -8.9% | [2] -6.5% | [3] -0.9% | [4] -3.25% | [5] 0.6% | [6] -2.65%

Fc1ccc(NC2=NCC(CI)S2)c(F)c1 (stereo not given)
inactive: [1] 12.1% | [2] 5.1% | [3] -3.85% | [4] 0.35% | [5] -20.2% | [6] -20.8%

CCOP(OCC)OCc1ccccc1
inactive: [1] 17.6% | [2] -4.05% | [6] -4.8%

COC(=O)C(C(=O)OC)C1=NCC(Br)CS1 (stereo not given)
inactive: [1] -11.2% | [2] 1.45% | [3] 11.5% | [4] 10.7% | [5] 6.65% | [6] 15.3%

CCc1cccc2ccc(N(CCBr)CCBr)cc12
inactive: [1] -6.85% | [2] -18.8% | [3] 17.7% | [4] 45% | [5] 5.9% | [6] 32.7%

Cc1ccc(N(CCCl)CCCl)cc1C
inactive: [1] 8.7% | [2] 11.8% | [3] -13.2% | [4] 2.3% | [5] 1.25% | [6] 4.8%

CCOC(=O)C[n+]1ccccc1/C=C\c1ccccc1
inactive: [1] -11.3% | [2] -2.6% | [3] -3.45% | [4] -29.9% | [5] -14.8% | [6] -3.45%

O=[N+]([O-])c1cccc(/C=N/Nc2ccc([N+](=O)[O-])cc2[N+](=O)[O-])c1
inactive: [1] -15.8% | [2] -23.1% | [3] -4.75% | [4] -42.1% | [5] 4.65% | [6] -16.1%

CC(CO)COP(=O)(N(CCCl)CCCl)N1CC1 (stereo not given)
inactive: [1] 1.8% | [2] -2.75% | [3] -18.4% | [4] 4.1% | [5] 2.05% | [6] 13.6%

CC(=O)SCC(Br)C(N)=O (stereo not given)
inactive: [1] 25.1% | [2] 11.1% | [3] 15.4% | [4] -14.8% | [5] -0.65% | [6] -5.8%

Cc1c([N+](=O)[O-])c2cc([N+](=O)[O-])c([N+](=O)[O-])cc2n1C
inactive: [1] 4.9% | [2] 4.4% | [3] 2.5% | [4] -11.8% | [5] -5.25% | [6] 29.4%

CCOP1OCC(C)O1 (stereo not given)
inactive: [1] 15.2% | [2] -0.85% | [3] 10.3% | [4] -4.4% | [5] -20.2% | [6] 27.8%
